Literature values, collected in paper PMC2898448 (The Journal of Biological Chemistry, 2010).

Tested on: DPP4
Settings: cited from earlier work

Row | SMILES | inhibition of GLP1 processing by DPP4 (in words) | substrate specificity of DPP4 inhibition (in words)
1 | N#C[C@@H]1CCCN1C(=O)CNC12CC3CC(CC(O)(C3)C1)C2 [Galvus] | inhibit the processing of GLP1 by DPP4 | not GLP1-specific
2 | N[C@@H](CC(=O)N1CCn2c(nnc2C(F)(F)F)C1)Cc1cc(F)c(F)cc1F [Januvia] | inhibit the processing of GLP1 by DPP4 | not GLP1-specific
